## Apparent affinities of Ab-14 variants for a coronavirus HR2 peptide

Source: Engelhart et al. 2022 (doi:10.1038/s41597-022-01779-4), MIT Lincoln Laboratory and A-Alpha Bio; data file from the FLAb repository.

All variants were tested on one target, the spike HR2 peptide PDVDLGDISGINAS (SARS-CoV-2).

Parent: Ab-14, a human scFv built as VH, a (GGGGS)3 linker, VL. Only the CDRs of the light chain vary.
VH: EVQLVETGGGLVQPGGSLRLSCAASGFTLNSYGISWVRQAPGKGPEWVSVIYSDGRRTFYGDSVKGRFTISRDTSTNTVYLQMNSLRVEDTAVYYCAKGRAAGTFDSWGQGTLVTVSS
VL: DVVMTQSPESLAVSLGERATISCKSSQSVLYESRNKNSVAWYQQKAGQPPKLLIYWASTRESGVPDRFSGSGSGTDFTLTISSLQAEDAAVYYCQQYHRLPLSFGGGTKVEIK

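AAYL50 was designed without a model: most single CDR substitutions and a random sample of double and triple ones. In AlphaSeq, yeast of one mating type display the scFv and yeast of the other type display the target. Pairs that bind mate more often; barcode pairs of the diploids are counted by sequencing. Each replicate has its own calibration line, from reference interactions of the BCL2 family. There are three technical replicates.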

The parent's light chain CDRs are KSSQSVLYESRNKNSVA, WASTRES, QQYHRLPLS; each variant's own CDRs replace them letter for letter.
Affinities are written as log10 Kd with Kd in nM; a lower number is a better binder.
A mean of the replicates is given; it leaves out those without a signal.
A pair that was not seen in any replicate is written "nd"; this usually means weak binding, but a binder can also be missed.
Three control strains display no target. For library AAYL50, 18% of the pairings with them gave a signal, with a median of 4.19 and one signal in twenty below 2.99, so weak values seen in few replicates may be background.

Read-out 1.50 (3 of 3 replicates), from KSSQSTKYESRNKNSVA | WASTRES | QQYHRLPLT.
Read-out 1.98 (3 of 3 replicates), from KSSQSDLYESRNKNSVA | WASTRES | QQYGRGPLS.
Read-out 0.81 (3 of 3 replicates), from KSSTSVLYESRNFNSVA | WASTRES | NQYHRLPLS.
Read-out nd (0 of 3 replicates), from KSSQSVLYESRNKNSKA | WASTREW | QQYHGLPLS.
Read-out 2.70 (3 of 3 replicates), from KSSQSVLYESRNKNGVA | WDSTRES | QQYHRLSLS.
Read-out nd (0 of 3 replicates), from TSSCSVLYESRNKNSVA | WASTRES | QQYHRLNLS.
Read-out 4.36 (1 of 3 replicates), from KSSQSVLYESRNKNSVA | WASTHES | QQAHRLPLS.
Read-out nd (0 of 3 replicates), from KSSQWVLYESRNKNSVY | WASTRES | QQCHRLPLS.
Read-out 0.76 (3 of 3 replicates), from KSSGSVLYESENKNSVA | WASTRES | QQYHRIPLS.
Read-out 3.16 (1 of 3 replicates), from KPSGSVLYESRNKNSVA | WASTWES | QQYHRLPLS.
Read-out 4.57 (2 of 3 replicates), from KSSQRVLAESRNKNSVA | WASTRES | QQYHRLPLP.
Read-out 3.93 (1 of 3 replicates), from GSSQEVLYESRNKNSVV | WASTRES | QQYHRLPLS.
Read-out 0.40 (3 of 3 replicates), from KLSQSVLYESRNKMSVA | WASTRES | QQYHRPPLS.
Read-out 2.92 (2 of 3 replicates), from FSSQSVLYHSRNKNSVA | WASTRES | IQYHRLPLS.
Read-out nd (0 of 3 replicates), from KSSQSVLYYSRNKNSGA | WASTRES | QQYHQLPLS.
Read-out -0.13 (3 of 3 replicates), from KSCQSVLYESRNKNSVA | WASTREH | QQYHRLPLM.
Read-out 2.71 (3 of 3 replicates), from KSSQSVVYESRNKNSVA | WASKRES | QMYHRLPLS.
Read-out nd (0 of 3 replicates), from KSSQSVLYESRNQNSVA | WASTRES | QQVHRLPLK.
Read-out 4.96 (2 of 3 replicates), from KSSQSVLYESRTKNSVQ | WASTRES | QTYHRLPLS.
Read-out nd (0 of 3 replicates), from KSSQSVLYESRNKNSVA | WSSMRES | QQYHRLPNS.
Read-out nd (0 of 3 replicates), from KSSQSVLYESRNKNSVL | DASTRES | QPYHRLPLS.
Read-out 1.04 (3 of 3 replicates), from KSSFSVLYESRNMNSVA | WASTREW | QQYHRLPLS.
Read-out nd (0 of 3 replicates), from ESSQSVLYESRNKNSVA | WASGRES | QQYHRLPLS.
Read-out 4.20 (1 of 3 replicates), from KSQQSVLYESRNKNSYA | WASTRES | QQYHRLPLS.
Read-out 3.84 (2 of 3 replicates), from ISSQSVLYESRNKNSVA | WASTRHS | QQYHRLPLG.
Read-out 2.75 (2 of 3 replicates), from KSSQSVAYESRNKNSVA | IASTRET | QQYHRLPLS.
Read-out -0.27 (3 of 3 replicates), from KSSQSVLYESRNKNSVA | GVSTRES | QQYQRLPLS.
Read-out 3.73 (1 of 3 replicates), from KSSQSWQYESRNKNSVA | WASTRES | QQYHRLPLS.
Read-out 3.56 (3 of 3 replicates), from KSFQKVLYESRNKNSVA | WASTFES | QQYHRLPLS.
Read-out nd (0 of 3 replicates), from WSSQSVLYESRNKNSVA | FASTEES | QQYHRLPLS.
Read-out 2.24 (3 of 3 replicates), from KKSQSGLYESRNKNSVA | WASTRES | QQYHRLPLY.
Read-out 4.36 (1 of 3 replicates), from KSSQSVLYESRNKNSVA | FNSTRES | QQYHRLPES.
Read-out 2.01 (3 of 3 replicates), from KSSKSVLYESTNKSSVA | WASTRES | QQYHRLPLS.
Read-out 2.60 (3 of 3 replicates), from KSSQSVLYESRVKNSVA | WASTREP | QYYHRLPLS.
Read-out 3.40 (3 of 3 replicates), from KSSTSVLYESRNKNSVA | WASTRES | QQYLRLVLS.

In this assay the parent's reference entry averaged 0.65; its copy inside this library read 1.68.